Screening results as filed in PubChem BioAssay.
Sampled rows, rich in hits. Any-hit rate of the full collection: about 3.7%.
Nrf2 block: Nrf2 pathway inhibition. Potency, µM (series often up to 46 µM), hits mostly inhibitors. 2.1% of 360,000 active. A549 ARE-Fluc reporter, luciferase luminescence, 18-24 h. AID 504444; also: nearly all actives have a fitted effect of over 60% in size
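Nrf2 function is reported as luminescence of an ARE-controlled luciferase in A549 cells. Compounds were tested at several concentrations, and a CellTiter-Fluor read on the same wells flagged cytotoxicity.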
Nrf2 ARE act: activators of Nrf2 (ARE) signaling; AREc32 ARE-luciferase reporter (MCF7-derived line), luminescence, 24 h; Potency, µM (top dose mostly 46.1 µM), most hits filed as activators; 0.31% of 410,000 active; also: nearly all actives have a fitted effect of over 65% in size
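Reporter line AREc32 (ARE-Fluc), seeded overnight in OPTI-MEM with 5% FBS; compound pin-transferred, 24 hr at 37 deg C, 5% CO2; luminescent read-out.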
ClpP mod: qHTS Assay for Activators of ClpP; ATP-dependent Clp protease proteolytic subunit (Bacillus subtilis (strain 168)), P80244; purified B. subtilis ClpP, FRET peptide cleavage, 20 min; Potency, µM (highest dose often 57.5 µM); 1.9% of 340,000 active; active = well fitted falling curve with a large enough effect; inconclusive = small, poorly fitted or top-dose-only effect; inactive = no such curve, though single readings can be large or run the other way; also: the source files actives as falling curves though it sought activators and does not explain the sign; nearly all actives have a fitted effect of over 65% in size
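FRET quenching reversal measured ClpP activation: 10 microg/mL B. subtilis ClpP at pH 8 with the FRET-FV decapeptide, read at 430 nm after 320 nm excitation. The 20-min minus 0-min signal was scaled between DMSO/no-enzyme wells and ADEP (5.8 microM final).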
miR-21 reporter: raises the signal of a miR-21 reporter; HeLa miR-21 FLuc reporter, luciferase, 48 h; Potency, µM (top dose mostly 38.3 µM); AID 2288; 340,000 tested, under 10 active; active = well fitted rising curve with a large enough effect; inconclusive = small, poorly fitted or top-dose-only effect; inactive = no such curve, though single readings can be large or run the other way;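 note: miR-21 action dims this reporter so a rising signal means less miR-21 action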
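HeLa miR-21-FLuc reporter line, endogenous miR-21; 2000 cells/well in DMEM/10% FBS; compound titration up to ~40uM final, 48 h, 37 degree Celsius; luciferase detection reagent, 15 min lysis, CCD luminescence.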
p53 reactivator: mutant p53 re-activation in reporter cells. H1299 p53-A138V BP100-luciferase reporter, luminescence, 24 h. Potency, µM (top dose mostly 92.2 µM), actives largely listed as activators. 0.063% of 320,000 active; also: nearly all actives have a fitted effect of over 45% in size
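p53-null H1299 cells stably carrying temperature-sensitive p53-A138V and a BP100-luciferase reporter were pinned with compounds (4-point, 1:5 series) and held 24 hrs at 37 deg C. Luminescence was read 10 min after detection reagent.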
A549 tox-1: counter-screen for Nrf2 inhibitors: cytotoxicity in A549 cells | A549 ARE-Fluc cells, CellTiter-Fluor viability, 18-24 h | Potency, µM (doses to about 46 µM), most hits filed as inhibitors | 0.16% of 390,000 active | AID 504648
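A549 ARE-Fluc cells in 5% FBS OPTI-MEM, 5000 cells/well, rested 2 h then exposed to compounds in concentration-response for 18-24 h at 37 °C. Viability by CellTiter-Fluor fluorescence (Ex 405/Em 525) after 30 min; luciferase luminescence (BugLite, 15 min, RT) read afterwards.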
FLuc counter 3: firefly luciferase inhibition, Nrf2 hit validation. shares compounds with Nrf2 block. purified firefly luciferase, luminescence inhibition. Potency, µM (titrated, usually from 57.5 µM), hits mostly inhibitors. 4% of 1,400 active; also: nearly all actives have a fitted effect of over 65% in size
A549 tox-2: toxic to A549 ARE-Fluc cells in Nrf2 counterscreen. 2% of 1,400 active. Potency, µM (series often up to 46.1 µM), hits mostly inhibitors. shares compounds with Nrf2 block. A549 ARE-Fluc cells, cytotoxicity counterscreen;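 also: cells exposed to compounds for 18 to 24 hours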
Nrf2 ARE inh: reduces Nrf2 ARE reporter signal in A549 cells. shares compounds with Nrf2 block. A549 ARE-firefly luciferase reporter, luminescence. Potency, µM (highest dose often 46.1 µM), actives largely listed as inhibitors. 74% of 1,400 active. AID 720524; also: nearly all actives have a fitted effect of over 65% in size
Numbers stand for hits; . = inactive; ? = inconclusive; / = no result. Unless noted, calls follow the shape of the dose curve; as a rule, active = well fitted curve in the direction sought with a large enough effect; inconclusive = small, poorly fitted or top-dose-only effect, or another doubt; inactive = no such curve, though single readings can be large; an effect the other way counts as inactive or inconclusive.

SMILES	Nrf2 block	Nrf2 ARE act	ClpP mod	miR-21 reporter	p53 reactivator	A549 tox-1	others
CCc1ccc(-n2nc(C)c3c(C(=O)NCCc4ccc(OC)c(OC)c4)cc(C)nc32)cc1	23µM	.	.	.	/	.
O=C(c1ccc(Cl)cc1)c1cn(Cc2ccccc2)c2cc3c(cc2c1=O)OCCO3	?	.	.	.	/	.
O=C1c2ccccc2-c2cc3ccccc3cc21	?	3.2µM	.	/	/	.
COc1ccc(Cl)cc1NC(=O)C1CCN(c2nnc(C)c3c(C)n(-c4ccccc4)nc23)CC1	.	.	28µM	.	/	.
C=CC[C@@H](CC(=O)N(CCO)Cc1ccccc1)C(=O)NC[C@H](OC(=O)[C@@H](CC=C)CC(=O)OC(C)(C)C)c1ccccc1	?	.	.	/	.	.
N#Cc1cc2c(nc1SCC(=O)Nc1cccc(C(F)(F)F)c1)C1CCN2CC1	21µM	.	.	?	/	.
COC(=O)C1=C(c2cccc(OCc3ccccc3)c2)C[C@@H]2CC[C@H]1N2C(=O)NCc1ccc(F)cc1	?	.	.	/	.	.
COC(=O)C1=C(c2cccc(OCc3ccccc3)c2)C[C@@H]2CC[C@H]1N2C(=O)NCCCc1ccccc1	21µM	.	.	/	?	.
COC(=O)C1=C(c2ccc(OCc3ccccc3)cc2)C[C@@H]2CC[C@H]1N2C(=O)NCCCc1ccccc1	15µM	.	.	/	.	.
CCOc1ccc(NC(=O)CN(c2ccc(Cl)cc2C)S(=O)(=O)c2ccccc2)cc1	?	.	.	?	/	.
CCOc1cccc(CC(=O)NCc2ccc3c(c2)CCN3C(=O)c2cccc(C)c2)c1OCC	21µM	.	.	?	/	.
COc1cccc(NC(=O)C2CCN(S(=O)(=O)c3cc(-c4noc(C)n4)ccc3C)CC2)c1	/	.	.	?	/	.
Cc1ccc(-c2nn(C)c(=O)c3ccccc23)cc1CNC(=O)/C=C/c1ccccc1	?	.	.	.	.	.
COc1ccc(Nc2cc(C)c3cc(NC(=O)c4ccccc4Cl)ccc3n2)cc1	26µM	.	?	.	/	.
COc1ccc(NC(=O)c2cn(CCC#N)nc2-c2ccccc2)cc1	.	.	.	.	/	.
Cc1ccc(C)c(N2CCN(C(=O)C3CCN(Cc4nc(-c5cccc(Cl)c5)oc4C)CC3)CC2)c1	.	.	?	.	/	.
Cc1ccsc1C(=O)C1CCCN(Cc2cnc(N3CCOCC3)s2)C1 (configuration not stated)	18µM	.	/	.	.	?
Cn1cc2c([N+](=O)[O-])cc([N+](=O)[O-])cc2n1	/	/	/	.	.	/
Cn1cnc([N+](=O)[O-])c1Sc1ccc([N+](=O)[O-])cc1	9.2µM	.	.	.	.	?
COc1cccc2c1cc([N+](=O)[O-])c1c(C(=O)O)cc3c(c12)OCO3	12µM	.	.	/	/	?
O=c1[nH]c(=O)n(CCC2=CCCCC2)c(O)c1/C=N/Nc1ccccc1	23µM	.	.	.	.	.
O=C1/C(=C/c2ccccc2)C[C@@]2(O)[C@H]3Cc4ccc(O)c5c4[C@@]2(CCN3CC2CC2)C1O5 (some centres not stated)	12µM	.	.	/	.	?
COc1ccc(-n2c(-c3ccco3)nc3c(cnn3-c3ccc(Cl)cc3)c2=O)cc1	26µM	.	.	.	/	.
Nc1nc(F)nc2c1ncn2[C@@H]1O[C@H](CO)[C@@H](O)[C@@H]1O	5.8µM	.	.	.	.	.	FLuc counter 3=.;A549 tox-2=.;Nrf2 ARE inh=16µM
O=C(CSc1nnc(NC(=O)c2cccc(F)c2)s1)NCc1ccco1	.	?	.	.	.	.
SMILES	Nrf2 block	Nrf2 ARE act	ClpP mod	miR-21 reporter	p53 reactivator	A549 tox-1	others
CC(=O)c1cccc(NC(=O)c2cc3c(s2)-c2c(C)cccc2OC3)c1	7.3µM	.	?	.	/	.	FLuc counter 3=.;A549 tox-2=.;Nrf2 ARE inh=6.5µM
COc1cc(C[C@@H](C)N)c(OC)cc1I	?	.	.	.	.	.	FLuc counter 3=.;A549 tox-2=.;Nrf2 ARE inh=.
CC(N)Cc1c[nH]c2c1ccc1ccccc12 (configuration not stated)	.	.	.	.	/	.
CCCNC(=O)NC(=O)COc1ccc(-c2ccc(C#N)cc2)cc1	?	.	?	.	.	.
Cc1cc(-c2ccc(C)c(S(=O)(=O)N3CCOc4ccc(Cl)cc43)c2)on1	?	.	.	?	/	.
CCN(CC)C(=O)c1ccc(NC(=O)c2cccc(S(=O)(=O)N3CCN(Cc4ccccc4)CC3)c2)cc1	2.1µM	.	.	/	.	?	FLuc counter 3=.;A549 tox-2=.;Nrf2 ARE inh=8.2µM
CCN(CC)C(=O)c1ccc(NC(=O)c2cc(S(=O)(=O)N3CCCCCC3)ccc2OC)cc1	?	.	/	/	.	.
CCCCCCn1c(=O)c(C(=O)Nc2cnccn2)c(O)c2ccccc21	4.1µM	.	/	.	.	?	FLuc counter 3=.;A549 tox-2=?;Nrf2 ARE inh=5.2µM
CCCCCn1c(=O)c(C(=O)Nc2ccccn2)c(O)c2ccccc21	?	.	.	.	?	.
C[C@@H]1CN([C@H](C)CO)C(=O)c2c(c3ccccc3n2C)-c2ccccc2CO[C@H]1CN(C)Cc1ccc(-c2ccccc2)cc1	/	.	?	/	/	/
CC12CCC3C(CCC4(O)CC(O)CCC34C=NO)C1(O)CCC2C1=COC(=O)C1 (configuration not stated)	0.058µM	.	.	/	/	?	FLuc counter 3=.;A549 tox-2=?;Nrf2 ARE inh=0.1µM
CCCCN=C[C@]12CCC(O)CC1(O)CCC1[C@@H]2CC[C@]2(C)[C@H](C3C=CC(=O)O3)CCC12O (some centres not stated)	?	.	/	?	.	.
CC12CCC3C(CCC4(O)CC(O)CCC34C=O)C1(O)CCC2C1=CC(=O)OC1 (configuration not stated)	0.46µM	.	.	/	/	?	FLuc counter 3=.;A549 tox-2=?;Nrf2 ARE inh=0.41µM
C[C@H]1O[C@@H](OC2CC[C@]3(C=O)[C@H]4CC[C@]5(C)[C@@H](C6=CC(=O)OC6)CC[C@]5(O)[C@@H]4CC[C@]3(O)C2)CC2OC(C)(C)OC21 (some centres not stated)	0.16µM	.	.	?	.	?	FLuc counter 3=.;A549 tox-2=?;Nrf2 ARE inh=0.065µM
C[C@]12CC[C@H]3[C@@H](CC[C@]4(O)C[C@@H](O)CC[C@]34C=O)[C@@]1(O)CC[C@@H]2C1=CC(=O)OC1	0.26µM	.	.	/	.	?	FLuc counter 3=.;A549 tox-2=.;Nrf2 ARE inh=0.41µM
